Source: ChEMBL document CHEMBL1139370, “Discovery of 1-[9-(4-chlorophenyl)-8-(2-chlorophenyl)-9H-purin-6-yl]-4-ethylaminopiperidine-4-carboxylic acid amide hydrochloride (CP-945,598), a novel, potent, and selective cannabinoid type 1 receptor antagonist” (J Med Chem, 2009)

The chains behind the UniProt entries cited, without tags or fusion partners.
UniProt P21554, whole entry: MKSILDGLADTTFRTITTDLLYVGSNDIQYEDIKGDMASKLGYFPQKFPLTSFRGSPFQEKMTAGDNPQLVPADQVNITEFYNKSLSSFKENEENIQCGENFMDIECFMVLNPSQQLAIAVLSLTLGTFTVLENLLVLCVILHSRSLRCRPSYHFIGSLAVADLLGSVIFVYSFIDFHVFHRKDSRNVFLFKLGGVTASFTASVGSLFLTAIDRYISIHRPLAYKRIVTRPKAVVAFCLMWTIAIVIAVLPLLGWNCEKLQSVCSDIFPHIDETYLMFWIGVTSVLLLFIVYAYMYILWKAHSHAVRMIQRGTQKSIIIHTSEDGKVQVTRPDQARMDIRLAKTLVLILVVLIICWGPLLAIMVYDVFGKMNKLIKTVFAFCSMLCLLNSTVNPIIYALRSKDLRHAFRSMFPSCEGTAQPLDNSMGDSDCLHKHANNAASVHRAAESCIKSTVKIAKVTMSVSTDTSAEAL

Experiments:
[1] = target: T1, Cannabinoid receptor 1 (Homo sapiens, UniProt P21554); assay: Antagonist activity against human CB1 receptor expressed in CHO-K1 cells by [35S]GTPgamma binding assay; type: functional, cell-based
[2] = target: T1, Cannabinoid receptor 1; type: cell-based, HEK293

SMILES: CN1CCN(c2ncnc3c2nc(-c2ccccc2Cl)n3-c2ccc(Cl)cc2)CC1
- Ki [1]: 1.6 nM

SMILES: CCNC1(C(N)=O)CCN(c2ncnc3c2nc(-c2ccccc2Cl)n3-c2ccc(Cl)cc2)CC1 [OTENABANT]
- Ki [2]: 0.7 nM
- Ki [1]: 0.12 nM
